This note sets out measurements from paper PMC3981819, “Signaling Properties and Pharmacological Analysis of Two Sulfakinin Receptors from the Red Flour Beetle, Tribolium castaneum” (PLoS ONE, 2014).

Assay [1] addresses Tribolium castaneum sulfakinin receptor 2 (T. castaneum).
In assay [2] the target is Tribolium castaneum sulfakinin receptor 1 (T. castaneum).

For the substance “nonsulfated (ns) drosulfakinin 2 (peptide)”, the values for the aequorin bioluminescence in CHO-WTA11 cells transfected with the receptor, peptide at 1 μM, % of the response to 1 μM sTrica-SK(5–13) in assay [1] and in assay [2] were 57.4% and 40.1%, respectively.
